This note sets out measurements from patent US20260373262 (published 2026).

Test [1] concerns the target T1, HLA-G1 (cell-expressed) (human, UniProt P17693).
In another test the target is HLA-G (NM_002127.5) (human, UniProt P17693). Kind of test: FACS. On the technique in general: A flow cytometer gives signals particle by particle.
Test [2] has as its target T1, HLA-G1 (cell-expressed). Kind of test: FACS.

Numbering of substitutions follows the chain as printed.

B1: hLFTT-1 VH4/VL5 (antibody, V domains shown)
VH: QIQLVQSGSELKKPGASVKVSCKASGYTFTTYGMSWVRQAPGQGLKWMGWIYTYSGVPTYADDLTGRFVFSLDTSVSTAYLQISSLKAEDTATYYCARVRDGYYRYAMDYWGRGTLVTVSS
VL: DIQMTQSPSSLSVSVGDRVTITCKASQDINRYIAWYQQQPGKAPKLLIHFTSTLQSGVPSRFSGSGSGTDFTFTISSLQPEDIATYYCLQYDDLRTFGQGTKLEIK
One may read the Kd as the free concentration of one partner at which half of the binding sites on the other are occupied at equilibrium, for simple one-to-one binding. Read a low Kd as higher affinity. The term EC50 denotes the concentration at which the effect is half-maximal. Regarding B1, the Kd in the test with HLA-G1 (cell-expressed) [1] was determined as 2.76 nM. Besides, the EC50 is 0.35 µg/mL in the test with HLA-G (NM_002127.5) and 0.05 µg/mL in the test with HLA-G1 (cell-expressed) [2].

B2: LFTT-1 VH5/VL3 (antibody, V domains shown)
VH: B1 VH with K46E
VL: B1 VL with V58I, T69R
With B2, in the test with HLA-G1 (cell-expressed) [1], the Kd is 4.4 nM. In other words, the single-digit nanomolar range.

B3: LFTT-1 VH5/VL4 (antibody, V domains shown)
VH: B1 VH with K46E
VL: B1 VL with T69R
Take B3: the Kd in the test with HLA-G1 (cell-expressed) [1] turned out to be 3.31 nM.
